PubChem BioAssay AID1471 (National Center for Advancing Translational Sciences (NCATS), 2008)
Only a part is listed here, and it is no random draw. Some structures show a salt or complex split into parts, the way the source records it. Activity calls are given as the source filed them. Calls come from the whole dose curve; as a rule, active = well fitted activation curve with a large enough effect; inconclusive = small, poorly fitted or top-dose-only effect; inactive = no such curve, though single readings can be large or run the other way.

experiment: qHTS Multiplex Assay to Identify Dual Action Probes in a Cell Model of Huntington: Cytoprotection (ATP); conditions: PC12 HTT-Q103 induced, ATP luminescence, 40 h; at 56.4 µM unless noted;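 note: toxic huntingtin expression switched on by the ecdysone agonist tebufenozide; % of control where 0% means no effect; nearly all actives have a fitted effect of over 45% in size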
Description: NIH Chemical Genomics Center [NCGC]
NIH Molecular Libraries Probe Production centers Network [MLPCN]
Assay Submitter (PI): Wei Zheng
Huntington's disease is a neurodegenerative disorder caused by a trinucleotide repeat expansion in Exon 1 of the Huntingtin gene. The CAG trinucleotide encodes glutamine and polyglutamine expansions cause cell death in selective areas of the brain. Huntington polyglutamine repeats have the tendency to form aggregates which are observable in later stages of the disease. The exact nature of the aggregates, whether toxic, protective, or insignificant, is unclear.
A stable PC12 cell line containing a gene fusion of Exon 1 of the Huntingtin gene linked to GFP under the control of the inducible ecdysone promoter were used as the cell-based model of Huntington Disease for high throughput screening. Exon 1 of the Huntingtin gene contained an expansion of 103 polyglutamines (Q103) which, when expressed, caused cell death and distinct, bright GFP aggregates. The amount of cell death and the size and intensity of GFP aggregates increased over time and induction level. The cell death were quantified with a measurement of ATP content in the cells. A maximal 40-50% of cell death was observed when the Huntington gene was induced in this cell line.
We optimized this assay in a homogeneous 1536 well format. A quantitative high throughput screen (qHTS) was conducted on the PC12 cells which were induced to express the toxic fusion construct. Small molecules which prevented cell death were identified by using a luminescent ATP quantification method (Perkin Elmer's ATPlite).
PC12 cells stably containing a construct with an ecdysone inducible promoter expressing GFP fused to the exon 1 of HTTQ103 (Huntington protein which containing a 103 ployglutamine expansion) were used.
NCGC Assay Protocol Summary:
Sequence, Parameter, Description
1, Reagent, 5 uL 1500 cells/well 1536 TC treated White clear bottom plate
2, Compound, 23 nL Tebufenozide inducer (100 nM final) to all columns
3, Compound, 23 nL 40 uM to 0.5 nM Libraries
5, Reagent, 5 ul ATPLite cell death assay reagent
6, Detector, 4 sec integration with a Viewlux Luminescent
Media consisted of phenol red free DMEM + 5% equine serum (Hyclone # SH30072.03 ), 5% supplemented Bovine Calf Serum (Hyclone # SH30074.03 ), 1x pen/strep, no G418
Control columns: 1 = DMSO, 2= 2 uM teb dilns (1:1), 4 = 100 nM Teb inducer. Sample columns received 100 nM Teb.

Row | Structure (SMILES) | cytoprotection (ATP increase)
1 | c1ccc(CN2CCC(Nc3ccccc3)CC2)cc1 | inactive: -9.66%
2 | ClCCOP(OCCCl)OCCCl | inactive: -46.9%
3 | CCOC(=O)C(CC)C1=NC(C)(C)Cc2ccccc21.O=[N+]([O-])c1cc([N+](=O)[O-])c(O)c([N+](=O)[O-])c1 (stereo unspecified) | inactive: 6.37% [at 10 µM]
4 | N#Cc1ccc(C(=O)NCC2(N3CCCCC3)CCCCC2)cc1 | inactive: -22.8%
5 | O=C(O)c1cccc(Nc2c([N+](=O)[O-])cc([N+](=O)[O-])cc2[N+](=O)[O-])c1 | inactive: -0.961% [at 10 µM]
6 | N/C(=N\O)c1c(N)no[n+]1[O-] | inactive: -18.8% [at 0.074 µM]
7 | COc1ccc(C(=O)NCC2(N3CCOCC3)CCCCC2)cc1OC | inactive: 0.641%
8 | CCCOc1ccc(C)cc1CN(CCCl)CCCl | inactive: 13.2% [at 10 µM]
9 | CCC(CO)(C(=O)OC1CN2CCC1CC2)c1ccccc1 (stereo unspecified) | inactive: -4.62%
10 | COc1cc(OC)cc(C(=O)NCC2(N3CCOCC3)CCCCC2)c1 | inactive: -3.58%
11 | O=C(O)C1(Nc2ccccc2)CCN(Cc2ccccc2)CC1 | inactive: 10.8% [at 10 µM]
12 | CC(C)(C)OC(=O)N1CCC(Nc2ccccc2)CC1 | inactive: -25.4%
13 | CCOc1ncccc1C(=O)NCC1(N2CCOCC2)CCCCC1 | inactive: 8.22%
14 | CN(C)c1ccc(C(=O)NCC2(N3CCCCC3)CCCCC2)cc1 | inactive: -9.46%
15 | Fc1ccccc1NC1CCN(Cc2ccccc2)CC1 | inactive: -4.02%
16 | Cc1ccc(OCC(C)C)c(CN(CCCl)CCCl)c1 | inactive: 5.94% [at 10 µM]
17 | COc1ccc(NC2CCN(CCc3ccccc3)CC2)c(OC)c1 | inactive: -21.7%
18 | CCOc1ccc(C)cc1CN(CCCl)CCCl | inactive: 6.75% [at 10 µM]

Row | Structure (SMILES) | cytoprotection (ATP increase)
19 | CCOC(=O)N1CCC(Nc2ccc(OC)cc2)CC1 | inactive: -0.0835% [at 10 µM]
20 | O=C(OC1CN2CCC1CC2)C1c2ccccc2Oc2ccccc21 (stereo unspecified) | inactive: -30.9%
21 | N#CC1(Nc2ccccc2)CCN(Cc2ccccc2)CC1 | inactive: -20.8% [at 10 µM]
22 | O=C(NCC1(N2CCOCC2)CCCCC1)c1cc2ccccc2o1 | inactive: 4.45%
23 | COc1ccc(C(=O)NCC2(N3CCCCC3)CCCCC2)c(OC)c1OC | inactive: -2.02%
24 | NC1CCCCC1.NP(=O)(O)N(CCCl)CCCl | inactive: 1.96% [at 10 µM]
25 | COc1ccc2c(c1O)-c1c(O)c(OC)cc3c1[C@H](C2)[N+](C)(C)CC3.O=[N+]([O-])c1cc([N+](=O)[O-])c([O-])c([N+](=O)[O-])c1[O-] | inactive: 5.14% [at 10 µM]
26 | O=C(OC1CN2CCC1CC2)c1ccc([N+](=O)[O-])cc1 (stereo unspecified) | inactive: -16.1% [at 10 µM]
27 | CCOP(=O)(Cl)Cl | inactive: -77.1%
28 | CN(C)c1cccc(C(=O)NCC2(N3CCCCC3)CCCCC2)c1 | inactive: -29.3%
29 | COc1ccc(CN(CCCl)CCCl)cc1Cl | inactive: 15.4% [at 10 µM]
30 | CC(C)c1ccc(NC2CCN(C(=O)OC(C)(C)C)CC2)cc1 | inactive: 12.5% [at 10 µM]
31 | CN1CCN(CCOC(=O)C(O)(c2ccccc2)c2ccccc2)CC1 | inactive: 2.65% [at 0.074 µM]
32 | COc1ccc(NC2CCN(C(=O)OC(C)(C)C)CC2)cc1 | inactive: -41.7%
33 | O=C(NCC1(N2CCOCC2)CCCCC1)c1cc(=O)[nH]c2ccccc12 | inactive: 16.3%
34 | O=[N+]([O-])c1cc([N+](=O)[O-])c(NCC2CCS(=O)(=O)C2)c([N+](=O)[O-])c1 (stereo unspecified) | inactive: -193%
35 | O=C(NCC1(N2CCCCC2)CCCCC1)c1cccc([N+](=O)[O-])c1 | inactive: -30.2%
36 | N#CC1(Nc2ccccc2)CCN(CCc2ccccc2)CC1 | inactive: 21.1%
